These are literature values, as cited in patent publication US7232798B2, “Neuroprotection and neuroegenisis by administering cyclic prolyl glycine” (priority 2001, dated 2007).

The conditions of the series: administered intraperitoneally and intravenously; unpublished results; cited from earlier work.

As to glycine-proline-glutamate [GPE], the “effect of high concentrations on the brain” value is on record as “severe brain damage”.
